Protein sequences, listed by entry. Tags and fused reporters are not part of them.
UniProt Q5S007, whole entry G2019S: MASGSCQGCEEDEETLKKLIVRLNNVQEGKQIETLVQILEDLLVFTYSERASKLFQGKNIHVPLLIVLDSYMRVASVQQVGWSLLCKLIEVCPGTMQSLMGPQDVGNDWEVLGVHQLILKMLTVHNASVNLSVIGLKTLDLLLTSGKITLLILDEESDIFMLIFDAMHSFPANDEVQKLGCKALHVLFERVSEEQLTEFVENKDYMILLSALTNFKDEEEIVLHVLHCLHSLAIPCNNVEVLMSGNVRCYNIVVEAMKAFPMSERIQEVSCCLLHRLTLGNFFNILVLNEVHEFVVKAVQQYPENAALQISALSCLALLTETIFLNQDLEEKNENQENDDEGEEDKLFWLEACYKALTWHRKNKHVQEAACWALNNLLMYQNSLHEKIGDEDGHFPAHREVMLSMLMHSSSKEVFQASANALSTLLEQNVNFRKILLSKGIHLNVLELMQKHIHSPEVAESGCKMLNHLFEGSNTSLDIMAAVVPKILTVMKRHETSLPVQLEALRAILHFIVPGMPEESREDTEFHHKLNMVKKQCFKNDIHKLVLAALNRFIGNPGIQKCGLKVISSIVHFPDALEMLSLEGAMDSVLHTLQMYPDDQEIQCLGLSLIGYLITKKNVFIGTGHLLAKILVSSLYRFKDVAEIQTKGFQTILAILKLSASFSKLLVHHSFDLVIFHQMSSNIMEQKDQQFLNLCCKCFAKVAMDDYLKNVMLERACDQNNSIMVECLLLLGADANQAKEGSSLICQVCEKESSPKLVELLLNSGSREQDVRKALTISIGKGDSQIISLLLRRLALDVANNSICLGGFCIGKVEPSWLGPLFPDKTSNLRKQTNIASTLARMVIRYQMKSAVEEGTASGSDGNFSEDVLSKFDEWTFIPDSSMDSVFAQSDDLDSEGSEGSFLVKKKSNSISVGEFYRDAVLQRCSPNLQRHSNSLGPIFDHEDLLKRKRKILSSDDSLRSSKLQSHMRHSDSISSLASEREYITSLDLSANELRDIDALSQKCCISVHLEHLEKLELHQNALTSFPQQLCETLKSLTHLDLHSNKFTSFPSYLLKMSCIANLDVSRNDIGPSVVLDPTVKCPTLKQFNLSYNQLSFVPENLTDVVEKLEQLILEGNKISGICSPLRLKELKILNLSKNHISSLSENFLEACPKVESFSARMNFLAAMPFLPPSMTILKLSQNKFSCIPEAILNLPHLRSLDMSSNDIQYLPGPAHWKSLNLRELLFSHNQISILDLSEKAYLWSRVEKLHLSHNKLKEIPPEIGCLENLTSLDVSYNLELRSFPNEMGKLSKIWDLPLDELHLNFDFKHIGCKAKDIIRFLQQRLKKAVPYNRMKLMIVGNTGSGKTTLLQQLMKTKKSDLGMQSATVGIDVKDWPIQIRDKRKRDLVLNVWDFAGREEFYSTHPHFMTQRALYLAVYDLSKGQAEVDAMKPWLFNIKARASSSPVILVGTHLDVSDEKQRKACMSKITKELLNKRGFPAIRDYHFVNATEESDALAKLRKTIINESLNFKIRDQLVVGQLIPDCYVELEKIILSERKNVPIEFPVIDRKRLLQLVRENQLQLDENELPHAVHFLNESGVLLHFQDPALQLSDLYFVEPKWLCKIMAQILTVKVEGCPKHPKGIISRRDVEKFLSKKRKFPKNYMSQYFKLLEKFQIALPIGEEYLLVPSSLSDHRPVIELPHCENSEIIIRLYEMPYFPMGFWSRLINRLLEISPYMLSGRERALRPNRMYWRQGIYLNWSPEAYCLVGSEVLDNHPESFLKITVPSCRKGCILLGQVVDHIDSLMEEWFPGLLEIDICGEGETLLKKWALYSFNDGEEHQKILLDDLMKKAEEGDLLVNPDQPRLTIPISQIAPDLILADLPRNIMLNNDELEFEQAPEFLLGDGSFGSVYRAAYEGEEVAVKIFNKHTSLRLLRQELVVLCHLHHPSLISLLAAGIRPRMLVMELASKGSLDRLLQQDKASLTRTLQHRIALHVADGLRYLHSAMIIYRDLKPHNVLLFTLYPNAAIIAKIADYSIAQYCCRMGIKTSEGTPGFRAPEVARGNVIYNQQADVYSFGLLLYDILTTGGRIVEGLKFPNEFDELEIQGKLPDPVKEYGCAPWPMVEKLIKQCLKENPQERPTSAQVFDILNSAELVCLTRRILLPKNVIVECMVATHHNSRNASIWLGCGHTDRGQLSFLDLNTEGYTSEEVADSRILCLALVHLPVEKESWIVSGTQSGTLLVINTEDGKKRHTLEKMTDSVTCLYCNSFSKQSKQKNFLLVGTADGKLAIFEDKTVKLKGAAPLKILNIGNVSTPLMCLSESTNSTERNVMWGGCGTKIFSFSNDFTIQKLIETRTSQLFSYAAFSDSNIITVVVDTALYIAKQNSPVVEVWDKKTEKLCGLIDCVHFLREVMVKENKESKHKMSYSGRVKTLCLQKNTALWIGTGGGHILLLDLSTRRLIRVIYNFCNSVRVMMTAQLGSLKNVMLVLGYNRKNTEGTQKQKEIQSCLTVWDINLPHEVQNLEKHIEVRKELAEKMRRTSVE

According to patent publication US20240398784A1, “C-LINKED ISOQUINOLINE AMIDES AS LRRK2 INHIBITORS, PHARMACEUTICAL COMPOSITIONS, AND USES THEREOF” (Merck Sharp & Dohme LLC, priority 2021, published 2024):

Target: LRRK2 G2019S (Homo sapiens, UniProt Q5S007, G2019S)
Experiment: LRRK2 G2019S Km ATP LanthaScreen assay
Format: biochemical

Point of comparison: CC1CCCC1(C)N1CCC(c2cc3cc(NC(=O)C4CC45CCOCC5)ncc3cc2Cl)CC1 (single isomer, unassigned) [Ex-6.21], “LRRK2 pIC50” value 8.02. Against it:
- CC(C(=O)Nc1cc2cc(C3CCN(C4(C)COCC4O)CC3)c(Cl)cc2cn1)C1CCOCC1 (stereo not drawn) — within 0.2 log units, 8.14
- CC1(N2CCC(c3cc4cc(NC(=O)C5CC5C(F)F)ncc4cc3Cl)CC2)COCC1O (stereo not drawn) — within 0.2 log units, 7.87
- CC(C(=O)Nc1cc2cc(C3CCN(C4(C)COCC4O)CC3)c(Cl)cc2cn1)C1CC1 (single isomer, unassigned) [Ex-2.102] — higher, 9.14
- CC(C(=O)Nc1cc2cc(C3CCN(C4(C)COCC4O)CC3)c(Cl)cc2cn1)C1CC1 (single isomer, unassigned) [Ex-2.103] — higher, 9.00
- CC1CCCC1(C)N1CCC(c2cc3cc(NC(=O)C4CC45CCOCC5)ncc3cc2Cl)CC1 (single isomer, unassigned) [Ex-6.20] — lower, 7.42
